Measured values as given in PubChem BioAssay AID1556 (The Scripps Research Institute Molecular Screening Center, 2009).
Several values for one entry are separate records, joined by “and”; a condition that tells them apart may be missing. Equal entries are not always repeated. The entries are a selection whose mix differs from that of the whole data set. Activity calls are given as the source filed them.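 Rule for the calls: active = inhibition above the mean plus 3 SD of all compounds in the same screening run (cut at about 4.5% in these data); inactive = the rest.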

System: metallo-beta-lactamase IMP-1 (Pseudomonas aeruginosa)
Test: IMP-1 metallo-beta-lactamase inhibitors, primary screen, biochemical, epi-absorbance readout, Pseudomonas aeruginosa enzyme (AID 1556);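 note: 0% = IMP-1 with DMSO and 100% = DMSO wells lacking enzyme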
Settings: purified IMP-1, nitrocefin hydrolysis, epi-absorbance fluorescence; at 5.6 µM; active compounds read high

Q: `COP1(=S)c2c(C)nn(CCC#N)c2N=C(c2ccc(F)cc2)N1C` (configuration not stated) was tested. Which inhibition did it give?
A: Its inhibition is inactive: -6.46%.

Q: How did the inhibition turn out when `CC1CCN(C(=O)Oc2c(Cl)cc(Cl)c3cccnc23)CC1` was run?
A: Its inhibition is inactive: -1.19%.

Q: For `CC(C)=N/N=C(\N)N[N+](=O)[O-]`, which inhibition is on record?
A: The inhibition was inactive: -0.74%.

Q: With `CN(C)C(=O)OCCc1n(C)cc[n+]1C` as the compound, how does the inhibition read?
A: The inhibition was inactive: -0.28%.

Q: Which inhibition does the source give for `CCN(/C(=N/P(=O)(N1CCOCC1)N1CCOCC1)N1CCOCC1)c1ccc(OC)cc1` here?
A: The inhibition was inactive: -3.24%.

Q: `Nc1ccc([As](=O)(O)c2ccc(N)cc2)cc1` was tested. Which inhibition did it give?
A: The inhibition was inactive: -0.25%.

Q: With `C[N+]1=C2C=CC=CC=C2SC12C([N+](=O)[O-])=CC([N+](=O)[O-])=C[C-]2[N+](=O)[O-]` (configuration not stated) as the compound, how does the inhibition read?
A: The inhibition was inactive: -0.55%.

Q: Which inhibition does the source give for `Cc1ccc(NP(=O)(Oc2ccccc2)Oc2ccccc2)nc1` here?
A: Its inhibition is inactive: -0.26%.

Q: Which inhibition does the source give for `O=[N+]([O-])c1cc([N+](=O)[O-])c(CCNc2ccccc2)c([N+](=O)[O-])c1` here?
A: The inhibition was inactive: -4.14%.

Q: For `CCc1nc2c(n1)c1c(non1O)c1c2no[n+]1[O-]`, which inhibition is on record?
A: The inhibition was inactive: -3.02%.

Q: For `CC(=O)N1C2C3N(C(C)=O)C1C1N(C(C)=O)C(C(N1C(C)=O)N3C(C)=O)N2C(C)=O`, which inhibition is on record?
A: Its inhibition is inactive: -2.74%.

Q: With `O=[N+]([O-])c1cccc2n[nH]nc12` as the compound, how does the inhibition read?
A: Its inhibition is inactive: -0.29%.

Q: With `COc1ccc(C2=NCC(CBr)S2)cc1` (configuration not stated) as the compound, how does the inhibition read?
A: The inhibition was inactive: -3%.

Q: With `O=C(O)CNc1ccc([As](=O)(O)O)cc1` as the compound, how does the inhibition read?
A: Its inhibition is inactive: -2.4%.

Q: `O=[N+]([O-])c1cccc(NC2=NCC(CBr)S2)c1` (configuration not stated) was tested. Which inhibition did it give?
A: Its inhibition is inactive: -4.58%.

Q: How did the inhibition turn out when `O=[N+]([O-])c1ncn(CCn2ncnc2[N+](=O)[O-])n1` was run?
A: The inhibition was inactive: -2.12%.

Q: Which inhibition does the source give for `CC(C)(C)C(=O)NC(Sc1ccncn1)C(Cl)(Cl)Cl` (configuration not stated) here?
A: Its inhibition is inactive: -3.04%.

Q: `O=C(Nc1cc([As](=O)(O)O)ccc1O)c1ccccc1` was tested. Which inhibition did it give?
A: Its inhibition is inactive: -0.94%.

Q: How did the inhibition turn out when `Nc1cccc2ccc([As](=O)(O)O)cc12` was run?
A: Its inhibition is inactive: -1.58%.

Q: How did the inhibition turn out when `CCN(N=Nc1nonc1N)c1nonc1N` was run?
A: Its inhibition is inactive: -2.53%.

Q: `O=[N+]([O-])c1cc([N+](=O)[O-])c(CCN2CCOCC2)c([N+](=O)[O-])c1` was tested. Which inhibition did it give?
A: The inhibition was inactive: -0.76%.

Q: For `CCOP(=O)(Nc1ccccc1)OCC`, which inhibition is on record?
A: Its inhibition is inactive: -2.94% and inactive: -0.95%.

Q: `Cc1cc(SC(NC(=O)c2ccc(F)cc2)C(Cl)(Cl)Cl)ncn1` (configuration not stated) was tested. Which inhibition did it give?
A: Its inhibition is inactive: -2.94%.

Q: Which inhibition does the source give for `Cc1ccc(NP(=O)(Oc2ccccc2F)Oc2ccccc2F)nc1` here?
A: The inhibition was inactive: -2.7%.

Q: Which inhibition does the source give for `O=P(Nc1nc2ccc(Cl)cc2s1)(c1ccccc1)c1ccccc1` here?
A: The inhibition was inactive: -3.14%.

Q: With `O=C(O)c1ccccc1[As](=O)(O)O` as the compound, how does the inhibition read?
A: The inhibition was inactive: -1.83%.

Q: For `CC(=O)Nc1ccc([As](=O)(O)O)cc1`, which inhibition is on record?
A: Its inhibition is inactive: -4.4%.
